This is a selection; strong and weak results do not stand in their true shares. Some salts or complexes appear as unconnected parts, following the source record. Activity calls are given as the source filed them. Calls come from the whole dose curve; as a rule, active = well fitted activation curve with a large enough effect; inconclusive = small, poorly fitted or top-dose-only effect; inactive = flat fitted curve, though single readings scatter.

Sequences of proteins named here, by UniProt entry; tags and fusion partners are left off.
UniProt P07550, whole entry: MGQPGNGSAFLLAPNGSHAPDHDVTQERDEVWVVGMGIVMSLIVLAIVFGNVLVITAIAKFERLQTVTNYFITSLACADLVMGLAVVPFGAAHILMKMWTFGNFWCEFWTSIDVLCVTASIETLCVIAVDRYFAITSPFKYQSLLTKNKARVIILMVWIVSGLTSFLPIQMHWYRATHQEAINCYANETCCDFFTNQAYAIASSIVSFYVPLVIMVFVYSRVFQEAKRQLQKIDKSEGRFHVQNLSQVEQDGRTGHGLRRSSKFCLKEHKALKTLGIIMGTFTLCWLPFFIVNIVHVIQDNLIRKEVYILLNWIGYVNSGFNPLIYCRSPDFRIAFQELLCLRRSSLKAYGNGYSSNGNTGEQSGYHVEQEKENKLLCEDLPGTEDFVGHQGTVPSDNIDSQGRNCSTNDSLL

The experiment concerns the target Beta-2 adrenergic receptor (Homo sapiens) (UniProt P07550). Briefly: qHTS assay of beta-arrestin-biased ligands of beta2-adrenergic receptor.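 Note: 0% = DMSO controls and full agonism = EC100 isoproterenol or metaproterenol; nearly all actives have a fitted effect of over 65% in size.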 Particulars: beta-arrestin recruitment to beta2AR, cell-based reporter; at 46.1 µM (top of the series). The text has this: NIH Molecular Libraries Probe Production Network [MLPCN]
NIH Chemical Genomics Center [NCGC]
PI: Bryan Roth and Bob Lefkowitz
The concept of biased agonism is an emerging concept of molecular pharmacology which proposes that seven transmembrane receptors (7TMRs) or G protein-coupled receptors (GPCRs), exist in multiple signaling conformations and complexes and that ligands (either agonists or antagonists) can induce signaling biased responses for distinct signal transduction cascades.
Furthermore, accumulating evidence over the last decade has drawn attention to a novel function of beta-arrestins as signal transducers that scaffold various signaling molecules upon activation of 7TMRs. […] This beta-arrestin-biased signaling presumably leads to distinct physiological outcomes from those by G protein activation.
Additionally, the active receptor conformations which […] on this beta-arrestin signaling are likely different from those activating G protein signaling
The goal of this screening project will be to discover and optimize novel beta-arrestin-biased ligands for beta2-AR signaling. A luminescent cell-based assay for beta2-AR-mediated agonism, known as the Tango assay, has been validated in which ligand binding of a recombinant beta2-AR and subsequent recruitment of a recombinant beta-arrestin lead to the release of the transcriptional activator tTA, which upregulates transcription of a tTA-responsive luciferase gene. […] Compounds were screened as a concentration-titration series that ranged from 46 microM to 0.6 nM.
NCGC Assay Protocol Summary:
Tango cells were dispensed into white, solid, tissue-culture-treated 1536-well plates at 1500 cells/well in DMEM, containing 1% fetal bovine serum (FBS). Then, 23 nL of compounds or DMSO were delivered to each well using a pin tool. Plates were incubated at 37 degrees C, 5% CO2 for 18 hr. Then 2.5 uL luminescent substrate mix (in-house prepared: 150 mM Tris-Cl, pH 7.6, 3 mM MgCl2, 1% Triton X-100, 5 mM DTT, 0.5 mM CoA, 0.15 mM ATP, 0.44 mM D-luciferin, final concentrations) was added to each well. Plates were then incubated for 15 minutes at room temperature, and subsequently measured on a ViewLux plate reader for luminescent signal using a clear filter with a 10 second exposure and 2x binning. The %Activity was determined from the corrected luminescence values.
Concentration-response curves were fitted to the signals arising from the resulting luminescence. The concentration-effect curves were then classified based on curve quality (r2), response magnitude and degree of measured activity, and compounds were subsequently categorized based on their curve class.
Keywords: biased agonism, beta2-AR, beta-arrestin, GPCR, 7TMR, Tango, luminescence, MLSMR, MLPCN, NIH Roadmap, qHTS, NCGC
A general note: Quantitative high-throughput screening tests each substance at several concentrations.
Turning to `Cc1ccc(C(=O)NCC2(N3CCCCC3)CCCCC2)o1`, the activation is inactive: 0.133%.
For `Fc1ccccc1NC1CCN(Cc2ccccc2)CC1`, the activation was inactive: -0.241%.
`COc1cc(OC)cc(C(=O)NCC2(N3CCCCC3)CCCCC2)c1`: the activation was inactive: 2.9%.
The value for `O=C(NCC1(N2CCCCC2)CCCCC1)c1ccco1` was inactive: -0.18%; that for `CN(C)c1ccc(C(=O)NCC2(N3CCCCC3)CCCCC2)cc1` was inactive: 0.0618%.
Next, `CCN1CCC(Nc2cccc(F)c2)CC1`: inactive: -0.264%; `CCCOc1ccc(C(=O)NCC2(N(C)C)CCCCC2)cc1`: inactive: -0.698%; `CC(C)(C)OC(=O)N1CCC(Nc2ccccc2)CC1`: inactive: -0.0416%.
`O=C(O)C1(Nc2ccccc2)CCN(Cc2ccccc2)CC1`: the activation is inactive: -0.36%.
The value for `CCOc1ncccc1C(=O)NCC1(N2CCOCC2)CCCCC1` was inactive: -0.306%; that for `CN1CCC(Nc2ccc(F)c(Cl)c2)CC1` was inactive: -0.626%; that for `CCCOc1ccc(C)cc1CN(CCCl)CCCl` was inactive: 0.0775%.
Turning to `CN1CCC(Nc2ccc(Cl)cc2)CC1`, the activation was inactive: -0.748%.
Consider `CCC(CO)(C(=O)OC1CN2CCC1CC2)c1ccccc1` (centres undefined), for which the activation is inactive: -1.13%.
Turning to `COc1cc(OC)cc(C(=O)NCC2(N3CCOCC3)CCCCC2)c1`, the activation is inactive: -0.0079%.
Consider `COc1cccc(C(=O)N(c2cc(C)cc(C)c2)C2CCN(C(=O)OC(C)(C)C)CC2)c1`, for which the activation was inactive: 0.262%.
Take `COc1ccc(C(=O)NCC2(N3CCOCC3)CCCCC2)cc1OC`: the activation is inactive: -0.372%.
Next, `O=C(NCC1(N2CCOCC2)CCCCC1)c1cc(Br)ccc1Cl`: inactive: -0.0804%.
The value for `COc1cc(C(=O)NCC2(N3CCOCC3)CCCCC2)cc(OC)c1C` was inactive: -0.958%.
The value for `O=C(OC1CN2CCC1CC2)C1c2ccccc2C=Cc2ccccc21` (centres undefined) was inactive: 1.86%; that for `CCc1cc(C(=O)NCC2(N3CCCCC3)CCCCC2)sc1C` was inactive: -0.228%; that for `O=C(O)c1cccc(Nc2c([N+](=O)[O-])cc([N+](=O)[O-])cc2[N+](=O)[O-])c1` was inactive: -0.0224%.
For the molecule `N/C(=N\O)c1c(N)no[n+]1[O-]`, the activation was inactive: -0.838%.
In the case of `CCOC(=O)N1CCC(Nc2ccc(C)cc2)CC1`, the activation was inactive: -0.277%.
The value for `CCOC(=O)C(CC)C1=NC(C)(C)Cc2ccccc21.O=[N+]([O-])c1cc([N+](=O)[O-])c(O)c([N+](=O)[O-])c1` (centres undefined) was inactive: -0.198%; that for `CC(C)(C)OC(=O)N1CCC(N(C(=O)c2ccccc2)c2ccc(Cl)cc2)CC1` was inactive: 0.379%.
Consider `N#Cc1ccc(C(=O)NCC2(N3CCCCC3)CCCCC2)cc1`, for which the activation was inactive: 0.307%.
For the molecule `c1ccc(CN2CCC(Nc3ccccc3)CC2)cc1`, the activation was inactive: 0.0609%.
The value for `CCCN1CCC(Nc2cc(OC)cc(OC)c2)CC1` was inactive: -0.425%; that for `CN(C)C1(CNC(=O)c2cccc(C#N)c2)CCCCC1` was inactive: -0.0091%; that for `O=C(NCC1(N2CCCCC2)CCCCC1)c1cccc([N+](=O)[O-])c1` was inactive: -0.138%.
Next, `CSc1ccc(C(=O)NCC2(N3CCOCC3)CCCCC2)cc1`: inactive: -0.0861%.
Next, `CCN1CCC(Nc2ccc(Cl)cc2)CC1`: inactive: -0.954%; `N#CC1(Nc2ccccc2)CCN(CCc2ccccc2)CC1`: inactive: 0.256%.
With `O=C(NCC1(N2CCCCC2)CCCCC1)c1ccc(OC(F)F)cc1`, the activation is inactive: -0.493%.
As to `CN1CCN(CCOC(=O)C(O)(c2ccccc2)c2ccccc2)CC1`, the activation was inactive: -1.99%.
For the molecule `COc1ccc(NC2CCN(C(=O)OC(C)(C)C)CC2)cc1`, the activation was inactive: 0.173%.
Take `CC(C)c1ccc(C(=O)NCC2(N3CCOCC3)CCCCC2)cc1`: the activation was inactive: -0.392%.
The value for `COc1cc(C(=O)NCC2(N3CCCCC3)CCCCC2)ccc1OC(F)F` was inactive: 0.114%; that for `O=C(NCC1(N2CCOCC2)CCCCC1)c1cc(=O)[nH]c2ccccc12` was inactive: 0.101%.
Regarding `O=C(NCC1(N2CCCCC2)CCCCC1)c1cccc(C(F)(F)F)c1`, the activation is inactive: -0.305%.
Next, `O=[N+]([O-])c1cc([N+](=O)[O-])c(NCC2CCS(=O)(=O)C2)c([N+](=O)[O-])c1` (centres undefined): inactive: -0.274%.
For the molecule `COc1cc(OC)c(C(=O)NCC2(N(C)C)CCCCC2)cc1OC`, the activation is inactive: -0.705%.
Next, `O=C(NCC1(N2CCOCC2)CCCCC1)c1cc(F)c(F)cc1Cl`: inactive: -0.729%; `COc1ccc(CN(CCCl)CCCl)cc1Cl`: inactive: 0.0019%; `O=[N+]([O-])c1cc([N+](=O)[O-])c(OC2CCCCC2O)c([N+](=O)[O-])c1` (centres undefined): inactive: -0.244%.
The value for `CN(C)c1cccc(C(=O)NCC2(N3CCCCC3)CCCCC2)c1` was inactive: 0.494%; that for `CC(C)c1ccc(NC2CCN(C(=O)OC(C)(C)C)CC2)cc1` was inactive: 0.0651%; that for `CCCOc1ccc(C(=O)NCC2(N(C)C)CCCCC2)cc1OC` was inactive: -0.86%.
Next, `O=C(NCC1(N2CCCCC2)CCCCC1)c1cncc(Br)c1`: inactive: -0.0469%.
For `COc1ccc2c(c1O)-c1c(O)c(OC)cc3c1[C@H](C2)[N+](C)(C)CC3.O=[N+]([O-])c1cc([N+](=O)[O-])c([O-])c([N+](=O)[O-])c1[O-]`, the activation is inactive: -0.0364%.
For the molecule `O=C(OC1CN2CCC1CC2)c1ccc([N+](=O)[O-])cc1` (centres undefined), the activation was inactive: -0.394%.
Take `CSc1ccccc1C(=O)NCC1(N2CCCCC2)CCCCC1`: the activation was inactive: 0.174%.
Next, `O=C(NCC1(N2CCCCC2)CCCCC1)c1ccc(=O)[nH]c1`: inactive: -0.414%.
Consider `O=C(NCC1(N2CCCCC2)CCCCC1)c1cccs1`, for which the activation is inactive: -0.164%.
Next, `COc1ccc(C(=O)NCC2(N3CCCCC3)CCCCC2)cc1`: inactive: 0.227%; `COc1ccc(C(=O)NCC2(N3CCCCC3)CCCCC2)c(OC)c1OC`: inactive: -0.226%; `CC(C)(C)OC(=O)N1CCC(N(C(=O)c2ccccc2)c2ccc(F)cc2)CC1`: inactive: 0.293%.
The value for `CCOC(=O)N1CCC(Nc2ccc(OC)cc2)CC1` was inactive: 0.32%; that for `O=C(OC1CN2CCC1CC2)C1c2ccccc2Oc2ccccc21` (centres undefined) was inactive: -0.408%.
As to `O=C(NCC1(N2CCCCC2)CCCCC1)c1ccc(Cl)s1`, the activation is inactive: -0.0959%.
`N#CC1(Nc2ccccc2)CCN(Cc2ccccc2)CC1`: the activation is inactive: -0.348%.
Next, `COc1ccc(Cl)cc1C(=O)NCC1(N2CCOCC2)CCCCC1`: inactive: -0.0549%; `O=C(NCC1(N2CCOCC2)CCCCC1)c1cc2ccccc2o1`: inactive: -0.414%.
Take `O=C(NCC1(N2CCCCC2)CCCCC1)c1ccc(Cl)nc1`: the activation was inactive: -0.095%.
For the molecule `Cc1cc(C)cc(N(C(=O)c2ccccc2)C2CCN(C(=O)OC(C)(C)C)CC2)c1`, the activation was inactive: 9.22%.
The value for `O=C(NCC1(N2CCCCC2)CCCCC1)c1ccc(F)cc1` was inactive: 0.072%.
Next, `CCCCOc1ccc(C(=O)NCC2(N3CCOCC3)CCCCC2)cc1`: inactive: 0.0689%; `COc1ccc(NC2CCN(CCc3ccccc3)CC2)c(OC)c1`: inactive: -0.352%; `CCOC(=O)N1CCC(Nc2ccc(F)cc2)CC1`: inactive: 0.5%.
Turning to `CCOc1ccc(C)cc1CN(CCCl)CCCl`, the activation is inactive: 5.98%.
The value for `COc1cc(C(=O)NCC2(N(C)C)CCCCC2)ccc1OC(F)F` was inactive: 0.434%; that for `CCOC(=O)N1CCC(Nc2cccc(C)c2)CC1` was inactive: -0.253%; that for `Cc1ccc(OCC(C)C)c(CN(CCCl)CCCl)c1` was inactive: 0.264%.
